Tested on: L929 cells
Test: TNFα-induced CICD of L929 cells, ATP assay
Assay type: cell-based, mouse

## O=[N+]([O-])c1ccc(-c2nc(-c3ccncc3)c(-c3ccc(F)cc3)[nH]2)cc1 [PD169316, reference compound]
  protection of L929 cells from TNFα-induced CICD, in words: neither these compounds nor geldanamycin work in L929 cells
